# Antibody variant affinities, Ab-95 light chain, assay 2

From the AlphaSeq antibody data of Engelhart et al. 2022 (doi:10.1038/s41597-022-01779-4), copy in the FLAb collection.

Antigen: PDVDLGDISGINAS, a 14-residue peptide of the SARS-CoV-2 spike HR2 region.

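Phage display of a naive human antibody library on the peptide gave the parent. The library (AAYL52) carries one to three amino acid substitutions per variant, with no insertions or deletions. In AlphaSeq, yeast of one mating type display the scFv and yeast of the other type display the target. Binding brings cells together so that they mate, and sequencing counts the barcode pairs among the diploids. The ratio of observed to expected reads was calibrated, replicate by replicate, on BCL2-family standards whose Kd was known from biolayer interferometry. The assay was run in three technical replicates.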

Parent scFv Ab-95: VH joined to VL by a (GGGGS)3 linker. Changes lie in the light chain CDRs alone.
VH: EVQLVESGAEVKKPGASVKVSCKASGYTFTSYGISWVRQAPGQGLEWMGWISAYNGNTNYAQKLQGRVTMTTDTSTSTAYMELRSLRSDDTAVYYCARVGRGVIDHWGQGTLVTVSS
VL: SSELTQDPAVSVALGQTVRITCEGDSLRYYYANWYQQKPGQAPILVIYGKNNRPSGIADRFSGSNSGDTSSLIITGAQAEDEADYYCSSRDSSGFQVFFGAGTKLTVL

The parent's light chain CDRs are EGDSLRYYYAN, GKNNRPS, SSRDSSGFQVF; each variant's own CDRs replace them letter for letter.
Affinities are written as log10 Kd with Kd in nM; a lower number is a better binder.
Where no diploid with the target was found in that replicate, the entry reads "nd": below detection, most likely a poor binder, though not proof of it.

Variant EGDSLRYYYVN | GKNNRPS | SSEDSSGFGVF gave 3.34, 3.32, 4.22 (controls 1 of 9).
Variant EGDSLRYYWAN | GKNNRPS | SSPDSSKFQVF gave nd, nd, nd (controls 2 of 9).
Variant EGDSLRYYIYN | GKNNRPG | SSRDSSGFQVF gave 5.86, nd, 4.63 (controls 2 of 9).
Variant EGDSIRYYYAN | GKNNFPS | SSRDSSGFSVF gave 4.03, nd, nd (controls 1 of 9).
Variant EGDSLRYQYYN | GKNNRPS | SSRDSSGFNVF gave 2.36, 2.66, 1.90 (controls 3 of 9).
Variant EGDSFRVYYAN | GKNMRPS | SSRDSSGFQVF gave nd, 3.37, 3.93 (controls 5 of 9).
Variant EGDSLFYYYAK | GKNNRPS | SSRDSWGFQVF gave 2.99, 2.89, nd (controls 2 of 9).
Variant EGGSLRYYSAN | GKNNRPS | SSRDSSGFVVF gave 3.09, 2.96, 3.71 (controls 0 of 9).
Variant ENDSLRYYYAN | TENNRPS | SSRDSSGFQVF gave 4.63, 3.47, nd (controls 1 of 9).
Variant EGDSLRYYYAS | GKNNRPS | SSRDSSGYQVY gave 2.75, 3.09, 2.35 (controls 2 of 9).
Variant EGDSLPYYYAN | GKNNRPY | SSRDSSGFTVF gave 3.13, 2.95, nd (controls 2 of 9).
Variant EGDSLRYWYAN | GKNNTPS | SSRDRSGFQVF gave 2.80, 2.58, 2.73 (controls 3 of 9).
Variant EQDSLRYYYAN | GKNNRPP | SSRDSSGFWVF gave nd, nd, nd (controls 3 of 9).
Variant QGDSLRYYYAN | GKNNRPS | SSRDSSGFLWF gave 2.62, 1.97, 1.72 (controls 1 of 9).
Variant EGDSLRYYYAN | GDNNRDS | SSRDSSGFCVF gave 2.81, 2.48, 3.35 (controls 0 of 9).
Variant EGDSLRYYYAN | GKNNRPS | SPRDSGGWQVF gave 2.42, 2.34, 1.70 (controls 3 of 9).
Variant EGDSLRYFYAN | GTNQRPS | SSRDSSGFQVF gave 2.57, 3.06, 2.83 (controls 0 of 9).
Variant ENDSLRYYYAN | GKNNRPS | SSRDNSGFQVT gave 3.31, nd, 3.44 (controls 3 of 9).
Variant EGDSLRYYYAN | GKNERPS | SSRYSSGFAVF gave 2.94, 3.00, 3.49 (controls 2 of 9).
Variant EGDSARYYYAN | GKNNRPS | SSRISSTFQVF gave 3.61, nd, 4.42 (controls 2 of 9).
Variant EGDWLHYYYAN | GKSNRPS | SSRDSSGFQVF gave 3.78, 3.12, nd (controls 1 of 9).
Variant DGDSLRYYYAN | FKNNRPI | SSRDSSGFQVF gave 5.13, 3.27, nd (controls 3 of 9).
Variant EGDSLRYYYAN | GKNSRPS | SSDDSSGFQGF gave 2.30, 2.78, 2.06 (controls 2 of 9).
Variant EGDSLRYYYPN | GKNNRVS | SIRDSSGFQVF gave 2.14, 2.19, 1.59 (controls 3 of 9).
Variant EEDSLRYYYAN | GKNNRPS | SSRDSSGFQCF gave nd, 4.54, nd (controls 5 of 9).
Variant EGDSLRYYMAN | GKNNRPS | SSRDCAGFQVF gave 2.62, 2.48, 1.51 (controls 2 of 9).
Variant EGDSLRYYYAN | GKNNRPS | SSRDSSKFQVF gave 2.38, 2.58, 3.79 (controls 2 of 9).
Variant EGDSLRYYIAQ | GKNNRPS | SSRDSSGIQVF gave 4.56, 4.51, 4.35 (controls 5 of 9).
Variant EGDSLRYYYAN | GMNNRPS | SSGDSVGFQVF gave 3.52, 2.29, 2.67 (controls 2 of 9).
Variant EGDSLRYYYAN | GKSNRPS | LSRDSSGFQVE gave 4.13, 4.07, nd (controls 3 of 9).
Variant EGDSLMYYYAN | GKVNRPS | SSRLSSGFQVF gave nd, 3.88, nd (controls 3 of 9).
Variant EGDSLRYMYAV | GKNNRPS | GSRDSSGFQVF gave 2.59, 3.51, 2.33 (controls 3 of 9).
Variant EGMSLRYYYAN | GKNNRPS | SSRDSSSFQVA gave 3.41, 4.12, nd (controls 3 of 9).
Variant EGDSLRYYYAN | SKNNRPS | SSRASSGFQVF gave nd, 4.61, nd (controls 5 of 9).
Variant EGDSLRYYYAC | GKNNRPH | SSRDSSGFQVF gave 4.51, 2.60, 3.93 (controls 2 of 9).
Variant TGDSLRYYYAN | GKNNRPS | SSSCSSGFQVF gave 3.50, 4.70, nd (controls 2 of 9).
Variant ESDSLRYYYAN | GKNNRPS | SSRDSSIFQRF gave 2.84, 2.80, 3.17 (controls 2 of 9).
Variant EGDKLWYYYAN | GKNNRPS | TSRDSSGFQVF gave 4.40, 3.56, 3.13 (controls 2 of 9).
Variant EGDSTRYYYAN | GKNNRPS | QSRDSFGFQVF gave 3.08, nd, 3.19 (controls 4 of 9).
Variant MGDSGRYYYAN | GKNNRPS | QSRDSSGFQVF gave nd, 4.13, 3.71 (controls 1 of 9).
Variant EGDSLRYYYAN | GKNNSPS | SSMDHSGFQVF gave 4.10, nd, 3.00 (controls 2 of 9).
Variant EGDSLRYYYDN | GKNNRPS | SSRASSGFQCF gave nd, nd, 3.67 (controls 2 of 9).
Variant EGDSLRYYWAN | GNNNRPS | SSRDSSGHQVF gave 3.00, 2.73, 2.45 (controls 3 of 9).
Variant EGDSLRYYYAN | GKNNRKS | SSRDSMGFQVF gave 2.01, 2.49, 2.70 (controls 1 of 9).
Variant EGDRLRYYYAN | GKNNRPS | YSRDSSGAQVF gave nd, nd, 4.37 (controls 3 of 9).
Variant EGDSLRYYYAN | GCNNRCS | SSRDSSGFQVF gave 5.36, nd, 4.48 (controls 3 of 9).
Variant EGDELDYYYAN | GKNNRMS | SSRDSSGFQVF gave 2.90, 2.46, 2.44 (controls 4 of 9).
Variant EGDSLKYLYAN | GKNNRPS | SSVDSSGFQVF gave nd, nd, 3.23 (controls 1 of 9).
Variant EGDSLRYYYAN | GKSNRPS | SQRDSSGDQVF gave 2.46, 2.85, 3.00 (controls 5 of 9).
Variant EGDTLFYYYAN | GKNNRPS | SSRDSSGFQVF gave 3.50, nd, 3.55 (controls 1 of 9).
Variant EEDSLRYYYEN | GKNNRPS | SSRDSSGFQVF gave nd, nd, nd (controls 2 of 9).

The last 3 entries again:

The variant EGDSLRYYYAN | GKSNRPS | SQRDSSGDQVF gave 2.46, 2.85, 3.00 (controls 5 of 9).
The variant EGDTLFYYYAN | GKNNRPS | SSRDSSGFQVF gave 3.50, nd, 3.55 (controls 1 of 9).
The variant EEDSLRYYYEN | GKNNRPS | SSRDSSGFQVF gave nd, nd, nd (controls 2 of 9).

In this assay the parent's reference entry averaged 2.31; its copy inside this library read 2.25.
Three control strains display no target. For library AAYL52, 28% of the pairings with them gave a signal, with a median of 3.91 and one signal in twenty below 2.90, so weak values seen in few replicates may be background. The control count says in how many pairings with the empty strains this scFv gave a signal.